The target in data set [1] is KDM5B (Homo sapiens, UniProt Q9UGL1). Kind of data set: Timecourse KDM5B AlphaScreen inhibition and kinact/Ki calculation. It is filed as biochemical.
Data set [2] concerns the target KDM5B (Homo sapiens, UniProt Q9UGL1, A373G/DEL102-140/DEL143-371/Q372G). Briefly: KDM5B 2-OG competition assay (AlphaScreen). Conditions: AlphaScreen in vitro activity in KDM5B. It is filed as biochemical. On the technique in general: Alpha assays give light when donor and acceptor beads are brought close together.
For a further data set, the target named is KDM2A (Homo sapiens, UniProt Q9Y2K7). Briefly: KDM AlphaScreen selectivity panel, KDM2A. In kind it is biochemical.
The target of another data set is KDM3A (Homo sapiens, UniProt Q9Y4C1). Kind of data set: KDM AlphaScreen selectivity panel, KDM3A. In kind it is biochemical. Conditions: KDM3A IC50/KDM5B IC50.
The target of another data set is KDM4A (Homo sapiens, UniProt O75164). Kind of data set: KDM AlphaScreen selectivity panel, KDM4A. In kind it is biochemical. To be noted: KDM4A IC50/KDM5B IC50.
For the next data set, the target named is KDM4B (Homo sapiens, UniProt O94953). Kind of data set: KDM AlphaScreen selectivity panel, KDM4B. Conditions: KDM4B IC50/KDM5B IC50. It is filed as biochemical.
Another data set has as its target KDM4C (Homo sapiens, UniProt Q9H3R0). Kind of data set: KDM AlphaScreen selectivity panel, KDM4C. In kind it is biochemical. To be noted: KDM4C IC50/KDM5B IC50.
For a further data set, the target named is KDM5A (Homo sapiens, UniProt P29375). Briefly: KDM AlphaScreen selectivity panel, KDM5A. To be noted: KDM5A IC50/KDM5B IC50. It is filed as biochemical.
Another data set has as its target KDM5C (Homo sapiens, UniProt P41229). Briefly: KDM AlphaScreen selectivity panel, KDM5C. In kind it is biochemical. Conditions: KDM5C IC50/KDM5B IC50.
The target in a further data set is KDM5D (Homo sapiens, UniProt Q9BY66). Kind of data set: KDM AlphaScreen selectivity panel, KDM5D. In kind it is biochemical. Conditions: KDM5D IC50/KDM5B IC50.
The next data set concerns the target KDM6B (Homo sapiens, UniProt O15054). Kind of data set: KDM AlphaScreen selectivity panel, KDM6B. It is filed as biochemical.
In the next data set the test system is Caco‐2 cells. Briefly: Caco-2 permeability. In kind it is in vitro ADME. To be noted: A to B. In general terms: Caco-2 cells form a polarised layer with tight junctions and transporters.
The mark [3] stands for this setting: from time-dependent IC50 values, pre-incubation 0 to 120 min.

Amino acid sequences for entries named in this document (tags omitted). Chains listed by the source or under a name are the forms on record and can include a tag or linker. Residues count along the entry.
UniProt Q9UGL1, 26-101 limits assumed: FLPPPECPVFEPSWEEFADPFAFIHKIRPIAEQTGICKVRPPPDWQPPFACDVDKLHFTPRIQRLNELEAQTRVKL
UniProt Q9UGL1, 374-770 limits assumed: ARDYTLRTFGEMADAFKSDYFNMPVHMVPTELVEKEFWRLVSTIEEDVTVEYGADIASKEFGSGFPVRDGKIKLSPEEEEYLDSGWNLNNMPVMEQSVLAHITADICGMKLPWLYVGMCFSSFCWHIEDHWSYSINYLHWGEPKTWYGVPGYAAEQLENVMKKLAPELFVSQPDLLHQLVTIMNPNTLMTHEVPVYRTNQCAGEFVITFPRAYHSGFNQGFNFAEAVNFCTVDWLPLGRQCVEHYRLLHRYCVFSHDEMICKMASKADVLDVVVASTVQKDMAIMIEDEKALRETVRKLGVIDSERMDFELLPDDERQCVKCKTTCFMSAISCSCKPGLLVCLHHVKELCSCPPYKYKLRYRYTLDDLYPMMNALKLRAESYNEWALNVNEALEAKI
UniProt Q9UGL1, 26-770 with tags or gaps A373G/DEL102-140/DEL143-371/Q372G limits assumed: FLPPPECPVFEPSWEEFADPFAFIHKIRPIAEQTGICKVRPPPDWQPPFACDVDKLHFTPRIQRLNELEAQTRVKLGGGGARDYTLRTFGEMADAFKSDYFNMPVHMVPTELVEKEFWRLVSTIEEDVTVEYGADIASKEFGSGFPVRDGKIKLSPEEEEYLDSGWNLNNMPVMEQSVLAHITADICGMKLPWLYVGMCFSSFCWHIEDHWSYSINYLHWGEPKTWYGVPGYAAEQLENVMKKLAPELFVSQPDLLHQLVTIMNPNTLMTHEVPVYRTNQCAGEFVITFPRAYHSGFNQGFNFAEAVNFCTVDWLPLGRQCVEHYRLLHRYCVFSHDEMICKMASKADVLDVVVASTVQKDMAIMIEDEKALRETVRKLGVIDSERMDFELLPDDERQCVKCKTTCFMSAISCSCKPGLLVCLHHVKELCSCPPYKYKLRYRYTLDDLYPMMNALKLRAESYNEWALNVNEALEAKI
UniProt Q9Y2K7, whole entry: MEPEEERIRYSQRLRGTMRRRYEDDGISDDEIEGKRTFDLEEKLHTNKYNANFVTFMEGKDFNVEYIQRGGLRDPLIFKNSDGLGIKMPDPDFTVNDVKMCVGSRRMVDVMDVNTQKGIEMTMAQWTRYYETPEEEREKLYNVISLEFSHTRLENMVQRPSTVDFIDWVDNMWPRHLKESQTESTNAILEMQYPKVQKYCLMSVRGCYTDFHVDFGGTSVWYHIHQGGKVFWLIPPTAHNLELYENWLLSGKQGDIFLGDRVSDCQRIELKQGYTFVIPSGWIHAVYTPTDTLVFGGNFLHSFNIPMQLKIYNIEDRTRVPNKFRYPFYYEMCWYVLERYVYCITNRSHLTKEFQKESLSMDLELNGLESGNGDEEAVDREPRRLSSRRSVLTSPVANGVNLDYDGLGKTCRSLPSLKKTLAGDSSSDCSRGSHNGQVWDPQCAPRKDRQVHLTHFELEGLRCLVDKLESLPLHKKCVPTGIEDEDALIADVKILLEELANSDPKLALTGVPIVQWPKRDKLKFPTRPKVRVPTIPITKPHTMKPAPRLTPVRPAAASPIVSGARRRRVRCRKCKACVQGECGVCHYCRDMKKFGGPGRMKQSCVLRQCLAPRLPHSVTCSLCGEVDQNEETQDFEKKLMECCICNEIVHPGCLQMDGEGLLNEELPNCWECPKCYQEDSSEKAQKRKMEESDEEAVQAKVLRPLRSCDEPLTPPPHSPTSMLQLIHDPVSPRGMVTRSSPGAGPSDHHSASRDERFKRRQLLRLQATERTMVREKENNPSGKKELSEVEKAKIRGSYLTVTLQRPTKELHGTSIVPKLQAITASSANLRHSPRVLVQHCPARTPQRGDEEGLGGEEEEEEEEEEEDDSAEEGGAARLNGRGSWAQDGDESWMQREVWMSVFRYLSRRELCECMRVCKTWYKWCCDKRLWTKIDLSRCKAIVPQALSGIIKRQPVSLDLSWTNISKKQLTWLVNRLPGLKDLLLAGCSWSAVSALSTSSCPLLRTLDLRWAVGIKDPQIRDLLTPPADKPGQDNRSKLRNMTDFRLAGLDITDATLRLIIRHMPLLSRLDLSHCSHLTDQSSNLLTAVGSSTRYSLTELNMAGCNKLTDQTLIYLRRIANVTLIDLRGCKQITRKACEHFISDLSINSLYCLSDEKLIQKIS
UniProt Q9Y4C1, whole entry: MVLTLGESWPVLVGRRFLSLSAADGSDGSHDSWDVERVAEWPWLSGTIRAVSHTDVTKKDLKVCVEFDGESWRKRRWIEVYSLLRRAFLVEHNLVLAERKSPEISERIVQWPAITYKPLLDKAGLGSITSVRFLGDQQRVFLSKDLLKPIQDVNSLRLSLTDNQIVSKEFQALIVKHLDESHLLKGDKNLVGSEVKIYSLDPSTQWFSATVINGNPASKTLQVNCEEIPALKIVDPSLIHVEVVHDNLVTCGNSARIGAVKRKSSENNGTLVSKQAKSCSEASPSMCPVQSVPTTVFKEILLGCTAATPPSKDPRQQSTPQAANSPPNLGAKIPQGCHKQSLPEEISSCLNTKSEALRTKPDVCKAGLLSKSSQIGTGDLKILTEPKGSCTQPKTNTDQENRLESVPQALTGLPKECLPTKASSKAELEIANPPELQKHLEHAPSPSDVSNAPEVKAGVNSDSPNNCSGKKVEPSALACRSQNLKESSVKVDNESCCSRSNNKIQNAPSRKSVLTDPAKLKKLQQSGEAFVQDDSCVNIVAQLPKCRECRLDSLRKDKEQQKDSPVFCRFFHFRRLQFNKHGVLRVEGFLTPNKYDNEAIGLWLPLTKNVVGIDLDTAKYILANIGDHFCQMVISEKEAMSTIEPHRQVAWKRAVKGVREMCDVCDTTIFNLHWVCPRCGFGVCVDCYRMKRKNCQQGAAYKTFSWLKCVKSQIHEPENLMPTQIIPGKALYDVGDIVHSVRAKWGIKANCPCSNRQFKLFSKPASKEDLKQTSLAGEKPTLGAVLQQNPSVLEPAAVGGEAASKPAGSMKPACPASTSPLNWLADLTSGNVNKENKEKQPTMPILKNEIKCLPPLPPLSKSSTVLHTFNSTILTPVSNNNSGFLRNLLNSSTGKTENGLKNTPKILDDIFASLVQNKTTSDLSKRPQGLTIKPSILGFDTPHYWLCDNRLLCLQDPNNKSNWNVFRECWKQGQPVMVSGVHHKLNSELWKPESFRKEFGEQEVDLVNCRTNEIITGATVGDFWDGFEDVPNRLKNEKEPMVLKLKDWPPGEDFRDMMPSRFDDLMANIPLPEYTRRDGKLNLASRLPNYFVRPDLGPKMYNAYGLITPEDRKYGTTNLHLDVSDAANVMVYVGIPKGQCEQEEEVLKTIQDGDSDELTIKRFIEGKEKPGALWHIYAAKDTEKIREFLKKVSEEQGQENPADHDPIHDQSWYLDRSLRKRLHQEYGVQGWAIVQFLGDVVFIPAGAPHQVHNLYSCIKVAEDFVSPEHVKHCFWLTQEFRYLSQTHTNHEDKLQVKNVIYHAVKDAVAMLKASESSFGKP
UniProt Q9H3R0, whole entry: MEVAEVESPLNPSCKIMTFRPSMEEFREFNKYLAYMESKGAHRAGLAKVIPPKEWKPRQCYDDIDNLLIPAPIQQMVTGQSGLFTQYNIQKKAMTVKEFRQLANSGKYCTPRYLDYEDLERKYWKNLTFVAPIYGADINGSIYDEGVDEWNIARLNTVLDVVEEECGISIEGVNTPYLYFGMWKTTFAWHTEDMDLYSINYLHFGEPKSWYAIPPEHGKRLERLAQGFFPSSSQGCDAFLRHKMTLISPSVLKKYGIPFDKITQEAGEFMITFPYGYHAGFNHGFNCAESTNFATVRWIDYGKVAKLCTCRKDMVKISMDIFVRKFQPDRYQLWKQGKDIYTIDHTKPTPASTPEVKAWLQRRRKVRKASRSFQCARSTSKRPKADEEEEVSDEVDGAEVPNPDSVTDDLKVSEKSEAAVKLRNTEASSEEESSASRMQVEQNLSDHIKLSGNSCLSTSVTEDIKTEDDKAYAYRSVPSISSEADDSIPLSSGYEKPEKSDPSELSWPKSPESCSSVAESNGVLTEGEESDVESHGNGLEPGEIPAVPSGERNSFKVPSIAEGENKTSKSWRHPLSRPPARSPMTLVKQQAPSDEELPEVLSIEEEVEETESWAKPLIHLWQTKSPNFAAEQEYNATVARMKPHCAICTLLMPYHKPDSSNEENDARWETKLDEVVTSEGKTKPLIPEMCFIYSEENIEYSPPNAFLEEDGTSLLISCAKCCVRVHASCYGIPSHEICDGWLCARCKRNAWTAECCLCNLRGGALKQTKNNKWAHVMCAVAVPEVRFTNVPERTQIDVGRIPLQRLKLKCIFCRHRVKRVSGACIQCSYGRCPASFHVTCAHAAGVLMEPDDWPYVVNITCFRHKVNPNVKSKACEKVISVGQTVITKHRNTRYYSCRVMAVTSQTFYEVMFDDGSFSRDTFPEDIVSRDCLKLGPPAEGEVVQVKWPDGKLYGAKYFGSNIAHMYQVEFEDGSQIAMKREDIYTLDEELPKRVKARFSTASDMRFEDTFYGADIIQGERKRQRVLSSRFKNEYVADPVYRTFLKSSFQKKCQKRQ
UniProt Q9BY66, whole entry: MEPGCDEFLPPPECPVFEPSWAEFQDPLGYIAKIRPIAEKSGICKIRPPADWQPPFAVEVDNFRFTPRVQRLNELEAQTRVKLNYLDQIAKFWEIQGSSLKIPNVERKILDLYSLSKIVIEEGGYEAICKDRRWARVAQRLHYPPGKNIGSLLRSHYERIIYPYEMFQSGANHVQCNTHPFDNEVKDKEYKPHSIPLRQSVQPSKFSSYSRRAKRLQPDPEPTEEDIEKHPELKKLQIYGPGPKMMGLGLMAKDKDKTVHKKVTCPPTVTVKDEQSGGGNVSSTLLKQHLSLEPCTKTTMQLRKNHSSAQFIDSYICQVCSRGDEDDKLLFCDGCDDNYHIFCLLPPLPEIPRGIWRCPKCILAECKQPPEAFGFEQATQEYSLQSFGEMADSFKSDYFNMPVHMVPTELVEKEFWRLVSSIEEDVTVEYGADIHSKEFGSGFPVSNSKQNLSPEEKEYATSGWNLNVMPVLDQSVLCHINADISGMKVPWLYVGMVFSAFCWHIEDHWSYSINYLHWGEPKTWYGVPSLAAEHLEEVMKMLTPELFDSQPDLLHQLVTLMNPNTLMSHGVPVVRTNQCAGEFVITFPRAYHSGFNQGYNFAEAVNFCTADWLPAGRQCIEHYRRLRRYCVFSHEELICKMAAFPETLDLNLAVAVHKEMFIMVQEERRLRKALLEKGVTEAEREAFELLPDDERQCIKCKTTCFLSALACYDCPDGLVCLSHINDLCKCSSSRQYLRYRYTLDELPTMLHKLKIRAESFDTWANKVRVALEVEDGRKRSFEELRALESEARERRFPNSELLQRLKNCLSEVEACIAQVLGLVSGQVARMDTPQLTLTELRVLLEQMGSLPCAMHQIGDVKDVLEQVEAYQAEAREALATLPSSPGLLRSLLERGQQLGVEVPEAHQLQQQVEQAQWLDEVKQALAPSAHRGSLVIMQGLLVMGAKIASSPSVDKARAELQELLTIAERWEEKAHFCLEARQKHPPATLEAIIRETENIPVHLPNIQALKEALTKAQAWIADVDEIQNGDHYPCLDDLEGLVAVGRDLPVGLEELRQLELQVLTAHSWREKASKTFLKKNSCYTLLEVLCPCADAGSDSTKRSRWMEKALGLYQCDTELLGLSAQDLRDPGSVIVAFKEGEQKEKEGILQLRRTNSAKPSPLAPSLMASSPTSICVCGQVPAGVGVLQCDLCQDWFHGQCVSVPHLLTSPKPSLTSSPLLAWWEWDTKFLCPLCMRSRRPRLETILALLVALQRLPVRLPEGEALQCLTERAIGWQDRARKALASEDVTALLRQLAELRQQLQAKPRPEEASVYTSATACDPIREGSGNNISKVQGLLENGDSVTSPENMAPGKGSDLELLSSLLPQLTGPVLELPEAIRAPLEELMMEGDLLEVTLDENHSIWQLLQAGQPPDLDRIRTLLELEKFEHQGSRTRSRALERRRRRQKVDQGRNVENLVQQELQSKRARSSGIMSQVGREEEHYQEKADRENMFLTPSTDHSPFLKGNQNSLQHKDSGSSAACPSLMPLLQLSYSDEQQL

Read-outs that look alike come from different tables or passages of the source. Some results are limits rather than exact numbers.

One may read the IC50 as the concentration that inhibits the measured activity by half. For `CC(C)c1c(-c2ccc(OCCNC(=O)CCl)cc2)[nH]c2c(C#N)cnn2c1=O`, the “kinact/Ki” value at KDM5B [1] is 6900 M⁻¹ s⁻¹; at KDM5B [1] (Table S1) it was 6.9 ± 0.11 10^3/sM. Besides, the Ki at KDM5B [1] (setting [3]) was 691 nM. On KDM5B [1] (setting [3]), the kinact is given as 48 ± 1.7 10^-4/s. Also, the IC50 is 49 nM at KDM5B [2] (read-out: IC50 (2‐OG 1 μM), 2-OG 1 μM); 41 nM on KDM5B [2] (read-out: IC50 (2‐OG 1 mM), 2-OG 1 mM); greater than 33000 nM on KDM2A (read-out: KDM IC50 2A, AlphaScreen after 120 min pre-incubation); 9600 nM on KDM6B (read-out: KDM IC50 6B, AlphaScreen after 120 min pre-incubation). In addition, the “SI over KDM5B, 2A” value on KDM2A (KDM2A IC50/KDM5B IC50) is greater than 677. Besides, the “SI over KDM5B, 3A” value at KDM3A is recorded as 95. The “SI over KDM5B, 4A” value at KDM4A was 97. On KDM4B, the “SI over KDM5B, 4B” value turned out to be 195. Also, the “SI over KDM5B, 4C” value on KDM4C is given as 29. The “SI over KDM5B, 5A” value on KDM5A is recorded as 1. Also, the “SI over KDM5B, 5C” value at KDM5C turned out to be 40. For the same compound, the “SI over KDM5B, 5D” value on KDM5D was determined as 4. The “SI over KDM5B, 6B” value at KDM6B (KDM6B IC50/KDM5B IC50) is listed as 196. Besides, the P app with Caco‐2 cells is <0.76 10^−6 cm s^−1.
